Literature values as cited in patent publication US20210137911A1, “NOVEL CHRONOTHERAPY BASED ON CIRCADIAN RHYTHMS” (THE TRUSTEES OF THE UNIVERSITY OF PENNSYLVANIA, priority 2014, published 2021).

Conditions: in vivo; cited from earlier work

Row | Substance | ½ Life
1 | Interferon Alfa-2b, Recombinant | 2 h
2 | Thyrotropin Alfa | 5 h
